Source: PMC11284788, “NN1213 – A Potent, Long-Acting, and Selective Analog of Human Amylin” (Journal of Medicinal Chemistry, 2024)

Protein sequences, listed by entry. Tags and fused reporters are not part of them. Residues count along the entry.
UniProt O60894, 27-148 partner: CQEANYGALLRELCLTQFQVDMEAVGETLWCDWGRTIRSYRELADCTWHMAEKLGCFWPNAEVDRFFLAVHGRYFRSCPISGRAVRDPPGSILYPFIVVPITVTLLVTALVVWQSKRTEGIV

Tests used:
[1] = biological target: T1, rAMY1R (Rattus norvegicus, UniProt P32214+Q9JJ74); assay: Species-specific cAMP assay, rAMY1R
T1 sequence (P32214 25-516): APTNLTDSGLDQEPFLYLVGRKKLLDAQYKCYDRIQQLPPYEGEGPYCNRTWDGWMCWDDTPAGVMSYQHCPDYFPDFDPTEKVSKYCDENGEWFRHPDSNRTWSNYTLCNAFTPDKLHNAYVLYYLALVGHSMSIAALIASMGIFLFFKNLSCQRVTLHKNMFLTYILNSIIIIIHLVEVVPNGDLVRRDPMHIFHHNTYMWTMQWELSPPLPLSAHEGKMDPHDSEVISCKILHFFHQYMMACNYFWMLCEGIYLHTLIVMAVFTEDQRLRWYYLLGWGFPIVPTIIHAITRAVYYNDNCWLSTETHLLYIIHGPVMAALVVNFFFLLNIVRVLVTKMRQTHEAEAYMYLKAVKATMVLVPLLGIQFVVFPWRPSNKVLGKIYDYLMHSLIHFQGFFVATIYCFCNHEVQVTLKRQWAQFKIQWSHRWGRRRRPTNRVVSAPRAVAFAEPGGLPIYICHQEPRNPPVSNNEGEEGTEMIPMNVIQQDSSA
T1 sequence (Q9JJ74 27-148 partner): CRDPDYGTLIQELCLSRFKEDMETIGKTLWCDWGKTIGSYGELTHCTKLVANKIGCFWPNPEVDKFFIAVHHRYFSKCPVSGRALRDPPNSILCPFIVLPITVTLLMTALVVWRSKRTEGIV

[2] = biological target: T1, rAMY1R; assay: Whole-cell competition binding, rAMY1R; design: expressed in transfected cells; host or cells: BHK tk-ts 13 cells, transient, FuGENE 6; settings: IC50 for the CTR divided by that of the AMYR, rat receptors
[3] = biological target: T2, hCTR (Homo sapiens, UniProt P30988); assay: Species-specific cAMP assay, hCTR
T2 sequence (P30988 25-474): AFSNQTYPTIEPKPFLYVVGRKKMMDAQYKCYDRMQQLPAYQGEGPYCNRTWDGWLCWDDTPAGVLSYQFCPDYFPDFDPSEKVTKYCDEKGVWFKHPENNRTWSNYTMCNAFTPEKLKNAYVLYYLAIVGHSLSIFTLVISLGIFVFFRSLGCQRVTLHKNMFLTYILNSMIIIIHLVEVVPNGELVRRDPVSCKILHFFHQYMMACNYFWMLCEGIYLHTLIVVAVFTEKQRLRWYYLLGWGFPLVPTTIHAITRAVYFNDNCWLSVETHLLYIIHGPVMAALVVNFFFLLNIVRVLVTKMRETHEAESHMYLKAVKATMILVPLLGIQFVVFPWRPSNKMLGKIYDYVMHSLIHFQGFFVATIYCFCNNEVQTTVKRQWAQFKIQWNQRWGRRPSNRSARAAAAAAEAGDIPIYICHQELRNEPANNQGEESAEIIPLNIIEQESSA

[4] = biological target: T3, rAMY3R (Rattus norvegicus, UniProt P32214+Q9JJ73); assay: Whole-cell competition binding, rAMY3R; design: expressed in transfected cells; host or cells: BHK tk-ts 13, transient co-transfection (FuGENE 6); settings: IC50 for the CTR divided by that of the AMYR, rat receptors
T3 sequence (P32214 25-479 isoform P32214-2 limits assumed): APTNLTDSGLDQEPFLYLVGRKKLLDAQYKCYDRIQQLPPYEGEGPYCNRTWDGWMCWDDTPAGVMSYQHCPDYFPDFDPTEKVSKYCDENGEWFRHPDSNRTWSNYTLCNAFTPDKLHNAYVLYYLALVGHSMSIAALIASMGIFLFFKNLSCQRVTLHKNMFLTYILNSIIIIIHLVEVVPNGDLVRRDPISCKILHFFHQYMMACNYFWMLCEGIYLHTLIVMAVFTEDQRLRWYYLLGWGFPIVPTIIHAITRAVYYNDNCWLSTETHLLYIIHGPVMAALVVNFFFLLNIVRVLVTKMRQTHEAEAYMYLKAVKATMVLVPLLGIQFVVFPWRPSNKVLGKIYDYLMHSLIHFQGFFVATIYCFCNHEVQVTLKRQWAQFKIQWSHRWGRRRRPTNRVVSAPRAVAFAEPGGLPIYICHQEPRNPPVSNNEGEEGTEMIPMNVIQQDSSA
T3 sequence (Q9JJ73 23-147 partner): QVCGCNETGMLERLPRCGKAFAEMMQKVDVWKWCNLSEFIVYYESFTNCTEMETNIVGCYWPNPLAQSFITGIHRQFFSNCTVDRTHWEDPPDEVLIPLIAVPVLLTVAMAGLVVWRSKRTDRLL

[5] = biological target: T4, rCTR (Rattus norvegicus, UniProt P32214); assay: Species-specific cAMP assay, rCTR
T4 sequence (P32214 25-479 isoform P32214-2 limits assumed): T3 sequence (P32214 25-479 isoform P32214-2 limits assumed)

[6] = biological target: T5, rat AMY3R (Rattus norvegicus, UniProt P32214+Q9JJ73); assay: cAMP FlashPlate assay, rat AMY3R; assay type: cell-based; settings: ratio of cAMP EC50 values
T5 construct: expressed in transfected cells; host or cells: BHK tk-ts 13, transient co-transfection (FuGENE 6)
T5 sequence (P32214 25-479 isoform P32214-2 limits assumed): T3 sequence (P32214 25-479 isoform P32214-2 limits assumed)
T5 sequence (Q9JJ73 23-147 partner): T3 sequence (Q9JJ73 23-147 partner)

[7] = biological target: T3, rAMY3R; assay: Species-specific cAMP assay, rAMY3R
[8] = biological target: T6, hAMY3R (Homo sapiens, UniProt O60896+P30988); assay: cAMP-responsive element luciferase reporter assay, human AMY3R; assay type: cell-based; design: expressed in transfected cells
T6 sequence (P30988 25-474): T2 sequence (P30988 25-474)
T6 sequence (O60896 24-148 partner): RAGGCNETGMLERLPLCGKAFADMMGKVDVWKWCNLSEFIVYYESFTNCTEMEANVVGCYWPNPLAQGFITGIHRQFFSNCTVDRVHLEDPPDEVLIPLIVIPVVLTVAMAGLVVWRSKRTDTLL

[9] = biological target: T7, hAMY1R (Homo sapiens, UniProt O60894+P30988); assay: Species-specific cAMP assay, hAMY1R
[10] = biological target: T6, hAMY3R; assay: Whole-cell competition binding, hAMY3R; design: expressed in transfected cells; host or cells: BHK tk-ts 13, transient co-transfection; whole cells for the species-specific assays; settings: IC50 for the CTR divided by that of the AMYR, human receptors
[11] = biological target: T7, hAMY1R; assay: Whole-cell competition binding, hAMY1R; design: expressed in transfected cells; host or cells: BHK tk-ts 13, transient co-transfection (FuGENE 6); settings: IC50 for the CTR divided by that of the AMYR, human receptors
[12] = biological target: T6, hAMY3R; assay: Species-specific cAMP assay, hAMY3R
[13] = biological target: T6, hAMY3R; assay: scintillation proximity binding assay, hAMY3R membranes; design: expressed in transfected cells; host or cells: BHK tk-ts 13, transient co-transfection; membranes for the SPA, whole cells for the species-specific assays; settings: ratio of binding IC50 values
Method: (§1) The apparent binding affinities were determined using a scintillation proximity assay with beads from PerkinElmer and cell membranes containing the AMY3R or CTRs. […] Membranes were harvested and membranes were prepared and kept at −80 °C until use. The assay was performed in a 384-well Optiplate (PerkinElmer). Membranes were mixed with scintillation proximity assay beads in a 1:1 ratio. […] Samples were analyzed on a TopCounter (Packard). The IC50 values were calculated using GraphPad Prism. See Supporting Information S7: SAR Screening Assay Methods (Binding Assays (Human and Rat)) for more information.
(§2) Binding Assays (Human and Rat). Brief descriptions of the methods used to determine binding affinities for SAR analysis are described below. Curves and IC50 values were plotted and calculated in GraphPad Prism using nonlinear regression (one site binding competition analysis), with pIC50 values […]
(§3) containing 20 mM Na-HEPES and 0.1 mM EDTA (pH 7.4, buffer 2). The resulting pellet was re-suspended in buffer 2 and protein concentration was measured (BCA protein assay, Pierce). […]
(§4) prior to centrifugation (1500 rpm, 10 min). Samples were analyzed on TopCounter (Packard). […]
(§5) 7.4, buffer 2). The resulting pellet was re-suspended in buffer 2 and protein concentration was measured (BCA protein assay, Pierce). […]

[14] = biological target: T3, rAMY3R; assay: scintillation proximity binding assay, rAMY3R membranes; design: expressed in transfected cells; host or cells: BHK tk-ts 13, transient co-transfection (FuGENE 6); settings: ratio of binding IC50 values
Method: as §1, §2, §3, §4, §5

[15] = ratio of cAMP EC50 values, rat receptors
[16] = ratio of cAMP EC50 values, human receptors

EC50 [1]: 0.00457 nM
Ratio CTR/AMY1R (rat, functional) [1, 15]: 24
Ratio CTR/AMY1R (rat, binding) [2]: 871
EC50 [3]: 0.372 nM
Ratio CTR/AMY3R (rat, binding) [4]: 173
EC50 [5]: 0.11 nM
ratio rCTR/rAMY3R [6]: 455
EC50 [7]: 0.00339 nM
Ratio CTR/AMY3R (rat, functional) [7, 15]: 32
EC50 ([8]; luciferase (human receptor assay), Tables S12 and S14, read-out: hAMY3R pEC50 (converted)): 0.0049 nM
ratio hCTR/hAMY3R ([8]; ratio of luciferase EC50 values): 14
EC50 [9]: 0.0759 nM
Ratio CTR/AMY1R (human, functional) [9, 16]: 5
Ratio CTR/AMY3R (human, binding) [10]: 134
Ratio CTR/AMY1R (human, binding) [11]: 117
EC50 [12]: 0.024 nM
Ratio CTR/AMY3R (human, functional) [12, 16]: 16
ratio hCTR/hAMY3R [13]: 13
ratio rCTR/rAMY3R [14]: 48
SMILES: CC[C@H](C)[C@H](NC(=O)[C@@H]1CCCN1C(=O)CNC(=O)[C@H](Cc1ccccc1)NC(=O)[C@H](CC(N)=O)NC(=O)[C@H](CC(N)=O)NC(=O)[C@H](CO)NC(=O)[C@H](CO)NC(=O)[C@H](Cc1c[nH]cn1)NC(=O)[C@@H](NC(=O)[C@H](CC(C)C)NC(=O)[C@H](Cc1ccccc1)NC(=O)[C@H](CC(N)=O)NC(=O)[C@H](C)NC(=O)[C@H](CC(C)C)NC(=O)[C@H](CCCNC(=N)N)NC(=O)[C@H](CCC(N)=O)NC(=O)[C@@H](NC(=O)[C@H](C)NC(=O)[C@@H]1CSSC[C@H](NC(=O)[C@@H](N)CCCCN)C(=O)N[C@@H](CC(N)=O)C(=O)N[C@@H]([C@@H](C)O)C(=O)N[C@@H](C)C(=O)N[C@@H]([C@@H](C)O)C(=O)N1)[C@@H](C)O)C(C)C)C(=O)N[C@@H](CC(C)C)C(=O)N1CCC[C@H]1C(=O)N1CCC[C@H]1C(=O)N[C@H](C(=O)N[C@@H](CC(N)=O)C(=O)N[C@H](C(=O)NCC(=O)N[C@@H](CO)C(=O)N[C@@H](CC(N)=O)C(=O)N[C@H](C(=O)N[C@@H](Cc1ccc(O)cc1)C(N)=O)[C@@H](C)O)C(C)C)[C@@H](C)O [pramlintide, reference compound]
